Target: D(3) dopamine receptor (Homo sapiens, UniProt P35462)
Experiment: biochemical

Sequences of proteins named here, by UniProt entry; tags and fusion partners are left off.
UniProt P35462, whole entry: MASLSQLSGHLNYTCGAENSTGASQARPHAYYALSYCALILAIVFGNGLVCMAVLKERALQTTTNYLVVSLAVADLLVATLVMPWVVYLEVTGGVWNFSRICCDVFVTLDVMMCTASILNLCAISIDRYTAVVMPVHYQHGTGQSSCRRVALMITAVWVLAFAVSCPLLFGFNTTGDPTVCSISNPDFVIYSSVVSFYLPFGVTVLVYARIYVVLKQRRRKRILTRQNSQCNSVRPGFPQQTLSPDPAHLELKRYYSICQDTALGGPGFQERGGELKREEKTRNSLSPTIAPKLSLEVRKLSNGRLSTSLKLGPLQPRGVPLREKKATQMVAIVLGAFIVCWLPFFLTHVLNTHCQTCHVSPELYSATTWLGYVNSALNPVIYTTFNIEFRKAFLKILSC

`Clc1cccc(N2CCN(CCCCNc3nccc4ccccc34)CC2)c1Cl` was tested, and the Ki was 3.1 nM.

With `Clc1cccc(N2CCN(CCCCNc3ccccn3)CC2)c1Cl` the Ki was 0.4 nM.

For `COc1ccccc1N1CCN(CCCCNc2ccc3ccccc3n2)CC1`, the Ki was 5.6 nM.

Source: ChEMBL document CHEMBL1221353, “Synthesis and evaluation of amides surrogates of dopamine D3 receptor ligands” (Bioorg Med Chem Lett, 2010)
